Experimental melting point values from OPERA 2.9

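The OPERA project collected these measurements from public sources as training and test data for property models. One number stands for a compound and property, with no spread given. Conditions of the individual experiments are not part of the data. The measured form (salt, isomer or mixture) is not always the one drawn. Some entries may be limits or estimates that an upstream database listed as plain numbers.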

The melting point is given in degrees Celsius.

The entry for CC(=O)Nc1ccc(S(=O)(=O)NCCC(=O)O)cc1 [N-(4-Acetamidobenzene-1-sulfonyl)-beta-alanine] lists melting point 161 °C.
The entry for NC(=O)c1cccc(O)c1 [3-hydroxybenzamide] lists melting point 164 °C.
The entry for O=C(O)CCOc1cccc(Br)c1 [3-(3-bromophenoxy)propanoic acid] lists melting point 64.5 °C.
The entry for Cc1ccc(NC(=O)C2CCNCC2)nc1 [N-(5-Methylpyridin-2-yl)piperidine-4-carboxamide] lists melting point 146 °C.
The entry for NC(=O)c1cc(F)ccc1N [2-Amino-5-fluorobenzamide] lists melting point 144 °C.
The entry for CC(C)NC(=O)c1ccccc1N [2-Amino-N-(1-methylethyl)benzamide] lists melting point 149 °C.
The entry for CCOc1ccc(NC(C)=O)cc1[N+](=O)[O-] [3-Nitro-p-acetophenetide] lists melting point 113.2 °C.
The entry for COc1ccc(S(=O)(=O)NCC(=O)O)cc1OC [{[(3,4-dimethoxyphenyl)sulfonyl]amino}acetic acid] lists melting point 174 °C.
The entry for Nc1cccc(S(=O)(=O)N2CCCCCC2)c1 [3-(Azepane-1-sulfonyl)-phenylamine] lists melting point 75 °C.
The entry for N#Cc1cc(Cl)ccc1N=C=O [5-chloro-2-isocyanatobenzonitrile] lists melting point 73 °C.
The entry for O=C1/C(=C\c2ccccc2)SC(=S)N1/N=C/c1ccccc1O [5-Benzylidene-3-salicylideneaminorhodanine] lists melting point 152 °C.
The entry for COc1ccc(-c2n[nH]c(=S)n2N)cc1OC lists melting point 206 °C.
The entry for CCn1c(N)cc(=O)[nH]c1=O [6-Amino-1-ethylpyrimidine-2,4(1H,3H)-dione] lists melting point 126 °C.
The entry for Cc1cc(C(=O)CCC(=O)O)c(C)s1 [4-(2,5-dimethylthien-3-yl)-4-oxobutanoic acid] lists melting point 106 °C.
The entry for CC(C)CC(C(=O)O)N1C(=O)c2ccccc2C1=O (stereo not drawn) lists melting point 120 °C.
The entry for Cc1ccc(-c2csc(NC(=O)CCl)n2)cc1 [2-Chloro-N-[4-(4-methylphenyl)-1,3-thiazol-2-yl]acetamide] lists melting point 170 °C.
The entry for CC(C)(C)c1ccc(OCCC(=O)O)cc1 [3-(4-tert-butylphenoxy)propanoic Acid] lists melting point 95 °C.
The entry for Cc1cccc(F)c1C(=O)O [2-Fluoro-6-methylbenzoic acid] lists melting point 115 °C.
The entry for O=C(O)CCn1ncc(=O)c2ccccc21 [3-(4-oxocinnolin-1(4H)-yl)propanoic acid] lists melting point 131 °C.
The entry for O=C(O)CNC(=O)C1CCCCC1 [Hexahydrohippurate] lists melting point 155 °C.
The entry for O=Cc1cnc(N2CCOCC2)nc1 [2-Morpholin-4-yl-pyrimidine-5-carbaldehyde] lists melting point 148 °C.
The entry for O=C1CSC(=S)N1c1cccnc1 [3-(Pyridin-3-yl)-2-sulfanylidene-1,3-thiazolidin-4-one] lists melting point 160 °C.
The entry for O=C1N=C(O)CCC1N1C(=O)C2CCCCC2C1=O (stereo not drawn) lists melting point 181 °C.
The entry for COc1ccc(C(=O)O)cc1S(N)(=O)=O [4-methoxy-3-sulfamoylbenzoic acid] lists melting point 284 °C.
The entry for COc1cccc2cc(C=O)oc12 [7-Methoxybenzofuran-2-carbaldehyde] lists melting point 46 °C.
The entry for COc1ccc(CCC(=O)O)cc1F [3-(3-Fluoro-4-methoxyphenyl)propanoic acid] lists melting point 112 °C.
The entry for CC(=O)O[C@@H]1C[C@]2(C)[C@H](CC[C@@H](O)[C@]2(C)O)[C@@](C=O)(C[C@@H](O)c2ccoc2)[C@@H]1C [Cascarillin] lists melting point 205 °C.
The entry for O=C1CCCc2cc(S(=O)(=O)Cl)ccc2N1 lists melting point 209 °C.
The entry for NS(=O)(=O)c1cccnc1Cl [2-chloropyridine-3-sulfonamide] lists melting point 184 °C.
The entry for O=S1(=O)CCC(Nc2ccccc2)C1 (stereo not drawn) [3-Anilino-1lambda~6~-thiolane-1,1-dione] lists melting point 121 °C.
The entry for Cc1ccc2c(O)c(C(=O)O)cnc2n1 [4-Hydroxy-7-methyl-1,8-naphthyridine-3-carboxylic acid] lists melting point 280 °C.
The entry for COc1cccc(NCCC#N)c1 [3-(3-Methoxyanilino)propanenitrile] lists melting point 82 °C.
The entry for CCc1ccc(C(N)C(=O)O)cc1 (stereo not drawn) [2-amino-2-(4-ethylphenyl)acetic Acid] lists melting point 220 °C.
The entry for O=C(Nc1ccccn1)C1CCCNC1 (stereo not drawn) [N-(Pyridin-2-yl)piperidine-3-carboxamide] lists melting point 95 °C.
The entry for CC1(C)CC(N(C=O)CCCCCCN(C=O)C2CC(C)(C)NC(C)(C)C2)CC(C)(C)N1 lists melting point 157.3 °C.
The entry for CCOC(=O)N1CCNC(c2ccccc2)C1 (stereo not drawn) [Ethyl 3-phenylpiperazine-1-carboxylate] lists melting point 62.5 °C.
The entry for O=C(CCC(F)(F)C(F)(F)C(F)(F)C(F)(F)C(F)(F)C(F)(F)F)ON1C(=O)CCC1=O lists melting point 129 °C.
The entry for Clc1ccc2nncn2n1 [6-chloro[1,2,4]triazolo[4,3-b]pyridazine] lists melting point 214 °C.
The entry for O=P(O)(O)CCC(F)(F)C(F)(F)C(F)(F)C(F)(F)C(F)(F)C(F)(F)C(F)(F)C(F)(F)F [((Perfluorooctyl)ethyl)phosphonic acid] lists melting point 182 °C.
The entry for Cc1cc(SC#N)cc(C)c1N [4-amino-3,5-dimethylphenyl thiocyanate] lists melting point 83 °C.
The entry for O=Cc1sc2ccccc2c1Cl [3-Chloro-1-benzothiophene-2-carbaldehyde] lists melting point 105 °C.
The entry for CCCCCCCCCC(=O)OCC(C)OC(=O)CCCCCCCCC (stereo not drawn) [1,2-Propanediol didecanoate] lists melting point -6 °C.
The entry for COc1ccc2c(c1)N(CC(C)CN1CCC(O)CC1)c1ccccc1S2 (stereo not drawn) lists melting point 138 °C.
The entry for COc1cccc(C2CC(=O)CC(=O)C2)c1 [5-(3-methoxyphenyl)cyclohexane-1,3-dione] lists melting point 132 °C.

The last 6 entries again:

Listed for O=P(O)(O)CCC(F)(F)C(F)(F)C(F)(F)C(F)(F)C(F)(F)C(F)(F)C(F)(F)C(F)(F)F [((Perfluorooctyl)ethyl)phosphonic acid]: melting point 182 °C.
Listed for Cc1cc(SC#N)cc(C)c1N [4-amino-3,5-dimethylphenyl thiocyanate]: melting point 83 °C.
Listed for O=Cc1sc2ccccc2c1Cl [3-Chloro-1-benzothiophene-2-carbaldehyde]: melting point 105 °C.
Listed for CCCCCCCCCC(=O)OCC(C)OC(=O)CCCCCCCCC (stereo not drawn) [1,2-Propanediol didecanoate]: melting point -6 °C.
Listed for COc1ccc2c(c1)N(CC(C)CN1CCC(O)CC1)c1ccccc1S2 (stereo not drawn): melting point 138 °C.
Listed for COc1cccc(C2CC(=O)CC(=O)C2)c1 [5-(3-methoxyphenyl)cyclohexane-1,3-dione]: melting point 132 °C.

Source: data files of OPERA 2.9 (Mansouri et al.), github.com/kmansouri/OPERA.